The results in this text go back to PubChem BioAssay AID651702 (NMMLSC, 2012).

The entries are a selection whose mix differs from that of the whole data set. Calls of active or inactive are those of the source.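 The calls were made as follows: active = inhibition above about 55% (limit read from the data); inconclusive = no clear call, values can overlap the other calls; inactive = the rest.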

This experiment is described as follows: LAMP-1 surface exposure blockers, TALL-104 cells – cell-based, flow cytometry, MLPCN library, primary screen (AID 651702). To be noted: TALL-104 LAMP-1 surface exposure, at 10 µM, hits give high values, cells stimulated with thapsigargin and PMA.
For the compound `CN(C)C(=O)c1cc([N+](=O)[O-])cc2c1-c1c(cc([N+](=O)[O-])cc1[N+](=O)[O-])C2=O`, the inhibition is active: 77.5%. Next, `NC(=O)Nc1ccc([As](=O)(O)O)cc1`: inactive: 3%; `Nc1ccccc1[As](=O)(O)c1ccccc1`: inactive: 1.8%; `O=C(O)COc1ccc([As](=O)(O)O)cc1[N+](=O)[O-]`: inactive: 8.1%. In the case of `O=P(Nc1nccs1)(Oc1ccccc1)Oc1ccccc1`, the inhibition is inactive: -4.9%.

Regarding `O=P(Nc1nccs1)(c1ccccc1)c1nc2ccccc2s1` (centres undefined), the inhibition was inactive: 4.4%.

As for `CCOP1(=S)c2c(C)nn(CCC#N)c2N=C(c2ccccc2F)N1C` (centres undefined), the inhibition is inactive: -3.1%. Next, `CS(=O)(=O)c1cc([N+](=O)[O-])c2no[n+]([O-])c2c1`: inactive: -5.8%. With `Nc1cccc([As](=O)(O)c2ccccc2)c1`, the inhibition is inactive: 0.3%. Next, `O=[As](O)(c1cccs1)c1cccs1`: inactive: -13.7%; `Cc1ccc(OCC(=O)OC2CN3CCC2CC3)cc1` (centres undefined): inactive: 0%.

Take `O=P1(Nc2ccc(Br)cn2)COc2ccccc2OC1`: the inhibition is inactive: -2.7%. Next, `NS(=O)(=O)c1cccc(NC(=O)COC(=O)C(O)(c2ccccc2)c2ccccc2)c1`: inactive: -3.2%. In the case of `Cc1ccc(S(=O)(=O)N(CCCN)CCCc2c(C)nc(N)[nH]c2=O)cc1`, the inhibition was inactive: -13%.

Regarding `O=P1(Nc2ncccn2)COc2ccccc2OC1`, the inhibition is inactive: 0.9%. With `CN(C)C1(CNC(=O)c2ccc(S(C)(=O)=O)cc2)CCCCC1` the figure was inactive: -3.7%; with `CCCC1OP(=O)(Nc2ccccc2)OCC1CC` (centres undefined), inactive: -3.4%; with `O=C(/C=C/c1ccccc1)OC1CN2CCC1CC2` (centres undefined), inactive: -2.5%. Next, `CC1CCC(C(C)C)C(OP(=O)(Nc2ccccn2)c2ccccc2)C1` (centres undefined): inactive: 3.7%. As for `Cc1ccc(C(=O)OC2CN3CCC2CC3)cc1` (centres undefined), the inhibition is inactive: -9.7%.

On to `Cc1nn(-c2ccccc2)c2c1P(=O)(N1CCOCC1)N(C)C(c1ccccc1)=N2` (centres undefined), for which the inhibition was inactive: 0.3%. With `CC(C)/C=N\N=C(\N)N[N+](=O)[O-]` the figure was inactive: -0.5%; with `CN(C(=O)Cc1ccc(Cl)c(Cl)c1)[C@@H]1CCCC[C@H]1N1CCCC1`, inactive: -1.5%; with `CC1(CBr)Cn2c(nc3ccccc3c2=O)S1` (centres undefined), inactive: 1.8%. As to `COc1ccccc1CNC(=O)COC(=O)C(O)(c1ccccc1)c1ccccc1`, the inhibition is inactive: -6.5%. With `CC(C)(C)C(=O)NC(Sc1ncccn1)C(Cl)(Cl)Cl` (centres undefined) the figure was inactive: -3.2%.

Turning to `O=P1(N(CCCl)CCCl)NCCC(C(F)(F)F)O1` (centres undefined), the inhibition is inactive: -0.2%.

Regarding `Clc1n[nH]nc1-c1nn[nH][15n]1`, the inhibition is inactive: 11.8%. As to `CCOP(=O)(NC(=NC(C)c1ccccc1)NC(C)c1ccccc1)OCC` (centres undefined), the inhibition is inactive: 12.1%. On to `O=P1(Nc2ccccn2)COc2ccccc2OC1`, for which the inhibition is inactive: -1.8%. Next, `CCC1=CC2Cc3nc4ccc(Cl)cc4c(N)c3C(C1)C2` (centres undefined): active: 85.8%; `CCOP(=O)(Nc1ccc(C)cn1)OCC`: inactive: -2.1%; `CN(CCCl)Cc1cc(Cl)c(NC2=NCCN2)c(Cl)c1`: inactive: -1.1%. With `CCC(C)N(CC(C)C)C(=S)SC(NC(C)=O)C(Cl)(Cl)Cl` (centres undefined) the figure was inactive: 5.9%; with `CSc1ccc(Nc2c([N+](=O)[O-])cc([N+](=O)[O-])cc2[N+](=O)[O-])cc1`, inactive: -0.1%; with `O=C(OC1CN2CCC1CC2)c1cccc([N+](=O)[O-])c1` (centres undefined), inactive: -2.6%.

For the compound `CCOC(=O)c1ccc(NC(=O)C(C)(CCl)SC)cc1` (centres undefined), the inhibition was inactive: -5.2%.

For `O=C(O)C(=O)c1ccc(N(CCCl)CCCl)cc1`, the inhibition was inactive: 1.9%.

Regarding `O=C(Nc1ccncc1[N+](=O)[O-])c1ccc([N+](=O)[O-])cc1[N+](=O)[O-]`, the inhibition was inactive: 5.2%. With `O=C(COc1ccccc1)OC1CN2CCC1CC2` (centres undefined) the figure was inactive: -1.8%; with `COC(=O)C1(C)COP(=O)(N2CCCC2)OC1` (centres undefined), inactive: -0.9%.

Consider `COP1(=S)c2c(C)nn(CCC#N)c2N=C(c2ccc(F)cc2)N1C` (centres undefined), for which the inhibition was inactive: 1.8%. With `O=P(Nc1ccccn1)(c1cccc2ccccc12)c1cccc2ccccc12` the figure was inactive: -1%.

For the compound `Cc1cc(SC(NC=O)C(Cl)(Cl)Cl)ncn1` (centres undefined), the inhibition was inactive: 1.1%.

As to `O=[N+]([O-])c1ccc(Nc2ccc(Oc3ccc([N+](=O)[O-])cc3[N+](=O)[O-])cc2)c([N+](=O)[O-])c1`, the inhibition was inactive: 1.5%. On to `CCOC(=O)Nc1cccc([As](=O)(O)O)c1`, for which the inhibition is inactive: -0.3%.

As for `COP(=O)(OC)N1CC1c1ccccc1` (centres undefined), the inhibition is inactive: 3.4%. Next, `Cc1cc(SC(NC(=O)c2ccccc2)C(Cl)(Cl)Cl)nc(C(C)C)n1` (centres undefined): inactive: -4%. Next, `CCCCOc1ccc(C(=O)NCC2(N3CCCCC3)CCCCC2)cc1OC`: inactive: 39.6%; `CCOC(=O)Nc1ccc([As](=O)(O)O)c(O)c1`: inactive: -8.4%; `O=C(O)C(O)c1ccc(N(CCCl)CCCl)cc1` (centres undefined): inactive: -5.9%. For the compound `CC1CCNP(=O)(N(CCCl)CCCl)O1` (centres undefined), the inhibition was inactive: 25%. On to `O=[N+]([O-])c1cc([N+](=O)[O-])c(-c2ccn[nH]2)s1`, for which the inhibition was inactive: 14.5%. Next, `CC(C)NC(=O)NP(=O)(Oc1ccccc1)Oc1ccccc1`: inactive: -0.9%. With `O=C(OC1CN2CCC1CC2)c1cccc2[nH]cnc12` (centres undefined) the figure was inactive: 1.9%; with `CCN(CC)C(=S)SC(NC=O)C(Cl)(Cl)Cl` (centres undefined), inactive: -0.9%.

Turning to `ClCCSc1nnc(-c2cccnc2)o1`, the inhibition is inactive: 13.4%. Next, `COC(=O)C1(C)COP(=O)(N2CCCCCC2)OC1` (centres undefined): inactive: -9.2%; `CC(C)c1ccc(OP(=O)(Nc2ccccn2)Oc2ccccc2F)cc1` (centres undefined): inactive: -1.7%.

Turning to `[N-]=[N+]=NC1CCCCC1NC(=O)c1cc([N+](=O)[O-])cc([N+](=O)[O-])c1` (centres undefined), the inhibition is inactive: -5.9%. As for `Cc1ccc(OP(=O)(Nc2ccc([N+](=O)[O-])cn2)Oc2ccc(C)cc2)cc1`, the inhibition is inactive: -2.9%. As to `Cc1ccc2nc3c(c(C)c2c1)CC(C(Cl)Cl)S3` (centres undefined), the inhibition was inactive: 0.5%. Next, `O=[N+]([O-])c1ccc(-c2cc([N+](=O)[O-])c(O)c([N+](=O)[O-])c2)cc1`: inactive: 11.3%. Next, `COc1cc(C(=O)NCC2(N3CCOCC3)CCCCC2)ccc1OCC(C)C`: inactive: 0.9%; `O=[As](O)(c1ccc(O)cc1)c1ccccc1O`: inactive: -1.6%. With `C[As](=O)(O)c1cccc(C(=O)O)c1` the figure was inactive: -4.9%; with `O=[N+]([O-])c1cc(Oc2ccc([N+](=O)[O-])cc2C(F)(F)F)cc([N+](=O)[O-])c1`, inactive: 1%; with `COc1ccc(N/C(=N/P(=O)(N2CCOCC2)N2CCOCC2)N2CCOCC2)cc1`, inactive: -0.3%. With `O=P1(N(CCCl)CCCl)Nc2ccccc2N1`, the inhibition was inactive: 4.2%.

With `O=P1(N(CCCl)CCCl)OCCCN1CCCl` (centres undefined), the inhibition is inactive: -1.5%. Regarding `COc1ccc2nc(NP(=O)(c3ccccc3)c3ccccc3)sc2c1`, the inhibition was inactive: -1.1%.

In the case of `Cc1c2c(nc3ccccc13)SC(C(Cl)Cl)C2` (centres undefined), the inhibition is inactive: -4.3%. Next, `Cc1cc(=O)[nH]c(N[N+](=O)[O-])n1`: inactive: -4.3%. Next, `O=C(OC1CN2CCC1CC2)C12CC3CC(CC(C3)C1)C2` (centres undefined): inactive: 0%.
